Experimental data from patent US20210230178A1, “TRIOXACARCIN ANALOGS AND DIMERS AS POTENT ANTICANCER AGENTS” (William Marsh Rice University, priority 2017, published 2021).

Assays:
[1] = system: MES SA (human uterine sarcoma); test: In vitro cytotoxicity assay (72 hour killing assay, CellTiter-Glo), MES SA; conditions: read-out: IC50 MES SA, 50% inhibitory concentration against cell growth
[2] = system: HEK 293T (human embryonic kidney cancer cell line); test: In vitro cytotoxicity assay (72 hour killing assay, CellTiter-Glo), HEK 293T; conditions: read-out: IC50 HEK 293T, 50% inhibitory concentration against cell growth
[3] = system: MES SA DX (human uterine sarcoma cell line with marked multidrug resistance); test: In vitro cytotoxicity assay (72 hour killing assay, CellTiter-Glo), MES SA DX; conditions: read-out: IC50 MES SA DX, 50% inhibitory concentration against cell growth, multidrug resistant line

Measured: IC50

DC-45-A2
> 2500 nM: all assays above
